## Apparent affinities of Ab-91 variants for a coronavirus HR2 peptide

Binding partner: SARS-CoV-2 spike HR2 peptide, sequence PDVDLGDISGINAS.

Parent: Ab-91, a human scFv built as VL, three GGGGS repeats, VH. Only the CDRs of the heavy chain vary.
VL: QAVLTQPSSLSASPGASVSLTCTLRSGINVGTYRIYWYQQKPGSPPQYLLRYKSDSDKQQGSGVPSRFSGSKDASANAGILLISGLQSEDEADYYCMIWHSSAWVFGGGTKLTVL
VH: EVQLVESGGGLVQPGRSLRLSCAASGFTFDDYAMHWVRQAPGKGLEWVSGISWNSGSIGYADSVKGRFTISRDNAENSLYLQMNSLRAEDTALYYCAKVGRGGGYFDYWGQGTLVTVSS

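The starting antibody came from a phage panning campaign against this peptide. Library AAYL51 holds single substitutions and randomly drawn double and triple substitutions in the CDRs. The scFvs were displayed on barcoded MATa yeast, the peptide on MATalpha yeast. The frequency of each diploid, read from paired DNA barcodes, reflects how well the two displayed proteins bind. A regression on co-assayed BCL2-family reference pairs converts the normalised counts of each replicate to an apparent Kd. Each pool was mated in three replicate cultures.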

Substitutions are numbered in sequence along the VH above, starting at 1 (not Kabat).
Each Kd is an estimate from the mating assay, the geometric mean of the replicates in which the pair was seen; lower is stronger.
"not detected" marks a missing value. The strain was present, yet no cells mated with the target were sequenced in any replicate, which points to weak or no binding.
The list is sorted by this average, lowest first, undetected variants last.

{"changes": "N54D D62M", "apparent Kd": "41 nM", "seen in": "3 of 3"}
{"changes": "D30C S55P G56S", "apparent Kd": "230 nM", "seen in": "3 of 3"}
{"changes": "D30I Y32M R101N", "apparent Kd": "1.5 µM", "seen in": "1 of 3"}
{"changes": "F27L I58N D62V", "apparent Kd": "1.8 µM", "seen in": "1 of 3"}
{"changes": "I51Q N54W K65N", "apparent Kd": "4.7 µM", "seen in": "1 of 3"}
{"changes": "D31H G56N V64D", "apparent Kd": "21 µM", "seen in": "3 of 3"}
{"changes": "N54R G56K D107Y", "apparent Kd": "35 µM", "seen in": "1 of 3"}
{"changes": "M34Y G56M S57P", "apparent Kd": "43 µM", "seen in": "3 of 3"}
{"changes": "G26H V64T", "apparent Kd": "48 µM", "seen in": "3 of 3"}
{"changes": "G59M K65C G103R", "apparent Kd": "56 µM", "seen in": "1 of 3"}
{"changes": "D31Y S55M S57H", "apparent Kd": "86 µM", "seen in": "1 of 3"}
{"changes": "W53I I58E G59D", "apparent Kd": "93 µM", "seen in": "2 of 3"}
{"changes": "D31K M34G S52F", "apparent Kd": "93 µM", "seen in": "2 of 3"}
{"changes": "A33N I51Y Y108V", "apparent Kd": "130 µM", "seen in": "3 of 3"}
{"changes": "I51S I58W V64C", "apparent Kd": "160 µM", "seen in": "1 of 3"}
{"changes": "F27Y S57H G59L", "apparent Kd": "230 µM", "seen in": "3 of 3"}
{"changes": "T28I G50C R101W", "apparent Kd": "510 µM", "seen in": "1 of 3"}
{"changes": "N54E S55D F106A", "apparent Kd": "1.4 mM", "seen in": "1 of 3"}
{"changes": "Y32C G103P Y105D", "apparent Kd": "1.7 mM", "seen in": "1 of 3"}
{"changes": "D31H A33N Y108A", "apparent Kd": "not detected", "seen in": "0 of 3"}
{"changes": "I51T S57C A61I", "apparent Kd": "not detected", "seen in": "0 of 3"}
{"changes": "G56Q A61L V64L", "apparent Kd": "not detected", "seen in": "0 of 3"}
{"changes": "I51V S52I A61K", "apparent Kd": "not detected", "seen in": "0 of 3"}
{"changes": "G50Q I51W Y60E", "apparent Kd": "not detected", "seen in": "0 of 3"}
{"changes": "F29E I58G G59H", "apparent Kd": "not detected", "seen in": "0 of 3"}
{"changes": "D30K A33T G56F", "apparent Kd": "not detected", "seen in": "0 of 3"}
{"changes": "T28Q A33I G102P", "apparent Kd": "not detected", "seen in": "0 of 3"}
{"changes": "H35F K65M", "apparent Kd": "not detected", "seen in": "0 of 3"}

Repeated from above, the 5 best binders with a signal in all replicates:

changes,apparent Kd,seen in
N54D D62M,41 nM,3 of 3
D30C S55P G56S,230 nM,3 of 3
D31H G56N V64D,21 µM,3 of 3
M34Y G56M S57P,43 µM,3 of 3
G26H V64T,48 µM,3 of 3

Three control strains display no target. For library AAYL51, 21% of the pairings with them gave a signal, with a median of 34 µM and one signal in twenty below 1.8 µM, so weak values seen in few replicates may be background.

Source: Engelhart et al. 2022 (doi:10.1038/s41597-022-01779-4), MIT Lincoln Laboratory and A-Alpha Bio; data file from the FLAb repository.